Results: patent publication US20250215095

What was measured:
[1] = tested on: internally quenched peptide probe with CM PWGLSGR (SEQ ID NO: 163)
[2] = tested on: internally quenched peptide probe with CM AWGLSGRS (SEQ ID NO: 686)
[3] = tested on: internally quenched peptide probe with CM LSGRSPAGL (SEQ ID NO: 694)
[4] = tested on: internally quenched peptide probe with CM PWGLSGRA (SEQ ID NO: 693)
[5] = tested on: internally quenched peptide probe with CM PWGLSARS (SEQ ID NO: 691)
[6] = tested on: internally quenched peptide probe with CM PWALSGRS (SEQ ID NO: 688)
[7] = tested on: internally quenched peptide probe with CM PWGLRS (SEQ ID NO: 48)
[8] = tested on: internally quenched peptide probe with CM PWGLAGRS (SEQ ID NO: 690)
[9] = tested on: internally quenched peptide probe with CM PWGLSGRS (SEQ ID NO: 12)
[10] = tested on: internally quenched peptide probe with CM PWGLSGKS (SEQ ID NO: 150)
[11] = tested on: internally quenched peptide probe with CM PWGLSG (SEQ ID NO: 684)
[12] = tested on: internally quenched peptide probe with CM LSGKSPWGL (SEQ ID NO: 178)
[13] = tested on: internally quenched peptide probe with CM PAGLSGRS (SEQ ID NO: 687)
[14] = tested on: internally quenched peptide probe with CM LSGRSPWGL (SEQ ID NO: 177)
[15] = tested on: internally quenched peptide probe with CM RSPWGL (SEQ ID NO: 90)
[16] = tested on: internally quenched peptide probe with CM PWGASGRS (SEQ ID NO: 689)
[17] = tested on: internally quenched peptide probe with CM PWGLSGAS (SEQ ID NO: 692)
[18] = tested on: internally quenched peptide probe with CM WGLSGRS (SEQ ID NO: 685)

With “urokinase-type plasminogen activator (uPA)” the Probe Cleavage (pM/s) [1] was 48.3 pM/s, the Probe Cleavage (pM/s) [2] was 832 pM/s and the Probe Cleavage (pM/s) [3] was 620 pM/s. It also gave a Probe Cleavage (pM/s) [4] of 380 pM/s, a Probe Cleavage (pM/s) [5] of 1520 pM/s and a Probe Cleavage (pM/s) [6] of 1130 pM/s. For the same substance, the “Probe Cleavage (pM/s)” value [7] was “-”, the Probe Cleavage (pM/s) [8] was 126 pM/s and the Probe Cleavage (kcat/KM (M^-1 s^-1)) [9] was 5300 M⁻¹ s⁻¹. The Probe Cleavage (pM/s) [9] was 429 pM/s, the Probe Cleavage (pM/s) [10] was 15.2 pM/s and the Probe Cleavage (pM/s) [11] was 12.9 pM/s. The Probe Cleavage (pM/s) [12] was 117 pM/s, the Probe Cleavage (pM/s) [13] was 1570 pM/s and the Probe Cleavage (pM/s) [14] was 668 pM/s. It also gave a Probe Cleavage (kcat/KM (M^-1 s^-1)) [15] of 66000 M⁻¹ s⁻¹, a Probe Cleavage (pM/s) [15] of 3210 pM/s and a Probe Cleavage (pM/s) [16] of 1310 pM/s. For the same substance, the Probe Cleavage (pM/s) [17] was 1.8 pM/s and the Probe Cleavage (pM/s) [18] was 548 pM/s.
